Here are results for 1 substance from article PMC7613515, “Reading and erasing of the phosphonium analogue of trimethyllysine by epigenetic proteins” (Communications Chemistry, 2022).

Assay [1] deals with T1, KDM4EJmjC (M1–Q337) (Homo sapiens, UniProt B2RXH2).
T1 construct: We chose human KDM4EJmjC (M1–Q337); made in house
T1 sequence (B2RXH2 1-337): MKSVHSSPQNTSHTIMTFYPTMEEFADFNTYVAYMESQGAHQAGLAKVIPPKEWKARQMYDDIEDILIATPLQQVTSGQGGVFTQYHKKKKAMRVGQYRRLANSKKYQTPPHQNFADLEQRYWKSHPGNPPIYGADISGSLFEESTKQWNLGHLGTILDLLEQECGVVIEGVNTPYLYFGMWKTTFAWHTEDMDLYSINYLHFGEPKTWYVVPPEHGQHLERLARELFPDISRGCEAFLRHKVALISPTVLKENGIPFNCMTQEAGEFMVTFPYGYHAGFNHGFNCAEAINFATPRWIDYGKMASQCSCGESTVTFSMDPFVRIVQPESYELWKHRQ
Put plainly: MALDI-TOF demethylation assay, KDM4EJmjC. The assay is classed as biochemical. The source says: We chose human KDM4EJmjC (M1–Q337), a histone H3K9me3/2 demethylase with relatively high demethylation activity as a model enzyme. Reactions were monitored using MALDI-TOF mass spectrometry (Fig. 5b–d).
A Bruker Daltonics MALDI-TOF/TOF AutoflexSpeed machine and Bruker MTP 384 target plates (polished steel BC, Part: 8280781) were used. The machine was controlled using Flex control (v. 3.4 build 135.10) and Compass for flex series (v. 1.4) software. Measurements were in the positive ion mode with the reflectron mode enabled. Incubations employed ProxiPlate-384™ (Perkin Elmer) plates into which was pipetted a solution of [H3_1-15K9me3 (10.0 µM), (+)-sodium L-ascorbate (1.0 mM), (NH4)2Fe(II)(SO4)2 (100 µM), di-sodium 2-oxoglutarate (200 µM) in buffer (HEPES (50 mM)) in MilliQ (pH 7.5)] (5.0 µL) using ClipTip™ (Thermo Scientific™) pipette tips and E1-ClipTip™ (Thermo Scientific™). The enzyme solution [KDM4EJmjC (1.0 µM) in HEPES (50 mM)] (5.0 µL) was added to initiate reaction at 37 °C. Reactions were quenched with formic acid in water (2%, 5.0 µL). Samples were then spotted onto a MALDI-TOF target plate (1.0 µL), MALDI matrix [sat. sol. α-cyano-4-hydroxy-cinnamic acid (10 mg·mL^−1) in {trifluoro acetic acid, acetonitrile and MilliQ (0.1:50:50)}] (1.0 µL) was added, mixed, and dried in air. Samples were then analysed by MALDI-TOF. Specific experiments were supplemented with catalase from bovine liver (C3155-50MG, Merck) (5.0 µM), bovine albumin serum (BSA, Perkin Elmer, CR84-100, DTPA purified 7.5%) (5.0 µM), or Tris(carboxyethyl)phosphine hydrochloride salt (TCEP, M02624, Fluorochem) (500 µM).

Assay [2] addresses T1, KDM4EJmjC (M1–Q337). Put plainly: FDH coupled demethylation assay (formaldehyde release), KDM4EJmjC. Particulars: FDH-coupled NADH, KDM4EJmjC 0.1 µM, peptide 0–50 µM, n = 2 or 3. It counts as biochemical. Here is the method: To test whether formaldehyde is generated by H3KP9me3 demethylation, a formaldehyde dehydrogenase (FDH) coupled assay was employed (Supplementary Fig. 19a)[34],[37].
Supplementary Fig. 19 KDM4EJmjC catalysed demethylation of H3K9me 3 coupled to formaldehyde dehydrogenase measurement of the formation of NADH. a FDH enzyme coupled to KDM4E JmjC demethylation assay measuring the levels of NADH as function of the demethylation. b FDH Activity assay with KDM4E JmjC (0.1 µM) and varied concentrations of H3K9me 3 (0–50 µM). c Michaelis-Menten analysis. Standard conditions: FDH (1.0 µM), Asc (1.0 mM), Fe(II) (50 µM), 2OG (200 µM) and NAD+ (250 µM). Errors are standard deviations of the mean (n = 2 or 3).
(1 picture or pasted object on this page, not shown here)
Supplementary Fig. 20 FDH activity assay of KDM4E JmjC (0–10 µM) catalysed demethylation of H3K P9me 3 (10 µM) […]
Standard conditions: FDH (1.0 µM), Ascorbate (1.0 mM), Fe(II) (50 µM), 2OG (200 µM) and NAD + (250 µM). Errors are standard deviations of the mean (n = 3 or 4).

In assay [3] the test system is KDM4AJmjC (M1–L359). Description: MALDI-TOF demethylation assay, KDM4AJmjC. It counts as biochemical, human. Particulars: KDM4AJmjC 2.4 µM, peptide 5.0 µM, 1 hr, duplicates. An excerpt: To investigate whether H3KP9me3 can be demethylated by other human KDM4 subfamily members, recombinant KDM4AJmjC (M1–L359) and KDM4DJmjC (M1–L358) were produced in E. coli following an adaption of literature procedures[38],[39]. […] No evidence for further demethylation was accrued. […] To test the ability of KDM3 and KDM7 subfamily representatives to demethylate H3KP9me2 or H3KP9me3, KDM3AJmjC (T515–S1317) and KDM7BJmjC (M37–N483) were produced using baculovirus/sf9 and E. coli expression systems, respectively[40],[41]. The synthesis of a histone H3 mimic peptide H3KP9me2 substrate is challenging as the tri-alkylated phosphine group is susceptible to oxidation during synthesis of the protected amino acid and during SPPS requiring oxygen-free conditions. Thus, to investigate if KDM3AJmjC or KDM7BJmjC can catalyse demethylation of H3KP9me2, an appropriate H3KP9me2 substrate was prepared in situ from H3KP9me3 using KDM4EJmjC (2.0 µM), in the presence of KDM3AJmjC (2.0 µM) or KDM7BJmjC (2.0 µM).
A Bruker Daltonics MALDI-TOF/TOF AutoflexSpeed machine and Bruker MTP 384 target plates (polished steel BC, Part: 8280781) were used. The machine was controlled using Flex control (v. 3.4 build 135.10) and Compass for flex series (v. 1.4) software. Measurements were in the positive ion mode with the reflectron mode enabled. […] Samples were then analysed by MALDI-TOF. […]

[4] abbreviates: MALDI-TOF, KDM4EJmjC 0.5 µM, H3K9me3 1–20 µM, Asc 500 µM, Fe(II) 50 µM, 2OG 100 µM, HEPES pH 7.5, 37 °C, n=2.

A word on the Km: it is the concentration of substrate that gives half-maximal velocity. A word on the Vmax: it is the top rate of the reaction or transport when substrate is in excess. A word on the kcat: it is the number of substrate molecules converted per active site and unit of time at saturation. For the substance “ARTKQTAR(Kme3)STGGKA [H3K9me3, natural trimethyllysine control peptide, histone H3 residues 1–15, reference compound]”, in assay [1] (H3K9me3 (5.0 µM) and H3KP9me3 (5.0 µM) in the same vessel, KDM4EJmjC 0.5 µM), the “demethylation in competition assay” value is given as “converted to H3K9me2/1 with the same efficiency as the control”. Besides, the “relative substrate quality / rate” value in assay [1] (H3K9me3 versus H3KP9me3) is “substantially better substrate than H3KP9me3”. The “demethylation in omission controls” value in assay [1] (H3KP9me3: without KDM4EJmjC, Asc, Fe(II) or 2OG, H3K9me3: without Asc and Fe(II), 1 hr) is “some demethylation was observed”. Also, the “demethylation” value in assay [1] (KDM4EJmjC 0.5 µM (H3KP9me3 also at 5.0 µM enzyme), peptide 5.0 or 6.0 µM, Asc 500 µM, Fe(II) 50 µM, 2OG 100 µM) is listed as “efficiently catalysed the di-demethylation”; in assay [3] it was “clear demethylation activity”. Also, the Michaelis constant (Km) in assay [1] (setting [4]) came out at 6.1 µM; in assay [2] (FDH 1.0 µM, Asc 1.0 mM, Fe(II) 50 µM, 2OG 200 µM, NAD+ 250 µM) it was 5.1 µM. Besides, the Vmax was determined as 2.7 µM/min in assay [1] (setting [4]) and 0.61 µM/min in assay [2]. Besides, the results for the kcat in assay [1] (setting [4]) and in assay [2] were 0.0883 s⁻¹ and 0.102 s⁻¹, respectively.
